Assay results: patent US8901177B2, “Method of treating bladder disorders” (Targacept, Inc., priority 2012, dated 2014)

By UniProt entry, the sequences of proteins in these tests, tags left out. Residues count along the entry.
UniProt P30926, 22-498: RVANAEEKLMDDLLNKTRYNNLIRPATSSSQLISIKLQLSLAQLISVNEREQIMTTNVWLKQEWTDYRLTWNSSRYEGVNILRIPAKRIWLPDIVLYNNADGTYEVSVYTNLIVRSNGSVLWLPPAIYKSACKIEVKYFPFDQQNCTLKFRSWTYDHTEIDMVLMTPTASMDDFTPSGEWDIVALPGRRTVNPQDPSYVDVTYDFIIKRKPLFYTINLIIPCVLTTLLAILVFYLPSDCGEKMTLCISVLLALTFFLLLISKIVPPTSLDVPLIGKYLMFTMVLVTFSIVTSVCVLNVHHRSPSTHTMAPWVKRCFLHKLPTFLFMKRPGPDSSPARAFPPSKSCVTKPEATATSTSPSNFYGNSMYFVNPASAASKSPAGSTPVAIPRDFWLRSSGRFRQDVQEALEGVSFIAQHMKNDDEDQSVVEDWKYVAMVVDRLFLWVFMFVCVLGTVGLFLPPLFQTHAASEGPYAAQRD
UniProt P32297, 32-505: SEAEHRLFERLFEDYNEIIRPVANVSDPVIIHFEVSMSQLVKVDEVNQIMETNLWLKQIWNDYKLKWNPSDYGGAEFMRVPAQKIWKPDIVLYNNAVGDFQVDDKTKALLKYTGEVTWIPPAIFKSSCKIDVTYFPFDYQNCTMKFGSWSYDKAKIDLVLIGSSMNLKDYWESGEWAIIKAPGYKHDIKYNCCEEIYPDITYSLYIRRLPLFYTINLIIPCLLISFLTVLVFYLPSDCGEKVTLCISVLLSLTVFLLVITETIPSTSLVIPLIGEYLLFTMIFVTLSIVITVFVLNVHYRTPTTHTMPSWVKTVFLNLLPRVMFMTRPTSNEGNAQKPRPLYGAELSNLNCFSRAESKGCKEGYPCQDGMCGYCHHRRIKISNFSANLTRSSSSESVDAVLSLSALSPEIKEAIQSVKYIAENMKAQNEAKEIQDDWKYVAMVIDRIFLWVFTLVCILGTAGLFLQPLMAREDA

Molecular target: T1, human α3β4 channels (Homo sapiens, UniProt P30926+P32297)
T1 construct: host or cells: CHO cells
Assay: Use-dependent inhibition of human α3β4 channels expressed in CHO cells (Dynaflow electrophysiology)
Format: cell-based
Details: 30 nM compound + 30 μM ACh, first co-application; control = 100; SEM and n in next columns
Procedure: There was an assumption that the dependence on the number of co-applications would be the most relevant to clinical concentrations, since upon the time of exposure in vivo, the number of open channels could reach substantial numbers; perhaps due to channel spontaneous opening, flickering, and endogenous transmitter release as a result of brain activity. All experiments were performed using a conventional Dynaflow (Cellectricon Inc.) electrophysiological system. Dynaflow settings: To achieve continuous exposure to the drug we used following Dynaflow chip loading. An example of standard chip loading for use-dependent experiments with example for 30 μM ACh and 0.1 μM of TC-05231 (racemic mecamylamine). For the following experiments, ACh always consisted of 30 μM and concentrations of compounds were, 0.03, 0.1, 0.3 and 1.0 (μM). FIG. 13 illustrates the settings.
Applications were performed by positioning the cell in front of channel #1 for 1 second, followed by channel #3, then back to channel #1 by rapidly moving the Dynaflow chip, which consisted of both the laminar flow from the channels and the entire bath solution. […]

## CNC1(C)C2CCC(C2)C1(C)C.Cl (racemic) [TC-5231, N,2,3,3-tetramethylbicyclo[2.2.1]heptan-2-amine hydrochloride]
  peak current normalized to 10th ACh application (positive modulation, FIG. 16): 99.29
